# Measured affinities in a library of Ab-14 heavy chain variants

All variants were tested on one target, the spike HR2 peptide PDVDLGDISGINAS (SARS-CoV-2).

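The parent was found by panning a naive human phage display library on the peptide. The library (AAYL49) carries one to three amino acid substitutions per variant, with no insertions or deletions. In AlphaSeq, yeast of one mating type display the scFv and yeast of the other type display the target. After mating in shaken culture at 30 °C for 16 h, diploids were selected and their barcode pairs sequenced. Read counts were normalised to the haploid input and turned into Kd by a linear fit to BCL2-family pairs of known affinity, for each replicate. There are three technical replicates.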

Parent: Ab-14, a human scFv built as VH, the linker GGGGSGGGGSGGGGS, VL. Only the CDRs of the heavy chain vary.
VH: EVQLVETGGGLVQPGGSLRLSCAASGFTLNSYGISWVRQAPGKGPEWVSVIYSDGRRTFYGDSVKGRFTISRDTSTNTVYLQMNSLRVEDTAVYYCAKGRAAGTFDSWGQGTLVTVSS
VL: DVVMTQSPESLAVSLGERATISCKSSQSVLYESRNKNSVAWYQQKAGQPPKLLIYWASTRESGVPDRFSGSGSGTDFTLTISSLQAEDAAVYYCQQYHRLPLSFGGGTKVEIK

The parent's heavy chain CDRs are GFTLNSYGIS, VIYSDGRRTFYGDSVK, GRAAGTFDS; each variant's own CDRs replace them letter for letter. Affinities are written as log10 Kd with Kd in nM; a lower number is a better binder. A mean of the replicates is given; it leaves out those without a signal. Where no diploid with the target was found in that replicate, the entry reads "ND": below detection, most likely a poor binder, though not proof of it.

CDR-H1	CDR-H2	CDR-H3	log10 Kd (nM) by replicate	log10 Kd (nM), mean	control signals
GFTLNSYGIS	VIYSDGRRTFYDYSVK	GRAAGTFDC	ND / ND / 3.87	3.87	0/9
GFTLNSYGIS	VIYSDCRRTFYGDSVK	GRAAETFDS	ND / ND / ND	ND	0/9
GFTLNSYGIS	VIYSDGRRTFYGDSVN	GRADGTFDW	ND / ND / ND	ND	0/9
GFTLNSYQIS	VIYSDGRRTFYGDSVW	GRAAGTFDS	4.06 / ND / ND	4.06	4/9 (4.25)
VFVLNSYGIS	VIYSDGRRTFYGDSVK	GRAAGTFDS	ND / ND / ND	ND	0/9
GFTLNSYGIS	VIYSDGRRTFYGDQVK	GFAAGDFDS	3.92 / ND / ND	3.92	1/9 (5.17)
GFTMNSLGIS	VIYSDGRRTFYGDSVK	GRCAGTFDS	ND / ND / ND	ND	0/9
GFTLNAYGIS	HIYSDGRRTFYGDSCK	GRAAGTFDS	ND / ND / ND	ND	5/9 (4.57)
GFTLNSYGIS	VIYSDGRDTFYGHSVK	GRAAGTFDS	3.90 / 3.62 / 4.18	3.90	2/9 (4.24)
PFTLNSYGIK	VIYSDGRVTFYGDSVK	GRAAGTFDS	ND / ND / 5.77	5.77	2/9 (3.73)
GFTFNSYGIS	VIYSDARRTFYGASVK	GRAAGTFDS	ND / ND / 4.76	4.76	2/9 (4.17)
GFTLNSYGIS	VIYSDRVRTFYGNSVK	GRAAGTFDS	ND / 3.53 / ND	3.53	0/9
EFTLNSYGMS	VIYFDGRRTFYGDSVK	GRAAGTFDS	ND / ND / ND	ND	0/9
GFTLNSIGIS	VIYSDGRRTFYGDSVK	GVAIGTFDS	4.66 / ND / ND	4.66	4/9 (4.96)
GFTLNSYGIS	VIYSIGRRTFYGMSVK	GRAAGTFDQ	ND / ND / ND	ND	0/9
GFTLNSYVLS	VIYSDARRTFYGDSVK	GRAAGTFDS	ND / ND / ND	ND	0/9
GVTLNSYGIS	VIYSDGRRTFYGDSVK	YRAAGTFPS	ND / 3.96 / ND	3.96	1/9 (4.70)
GFTLNSYGIS	VIYSDGRRKFYGDSVC	ARAAGTFDS	ND / ND / ND	ND	0/9
GFTLNSREIS	VIYSDGRRTFYGDLVK	GRAAGTFDS	ND / ND / ND	ND	1/9 (3.10)
GFTLNNYGIS	VEYSDGRRTFYLDSVK	GRAAGTFDS	ND / 3.25 / 1.89	2.57	0/9
GFTLNSYGIS	VIASDGRRTFYGDSVK	GKAAGTCDS	ND / ND / ND	ND	3/9 (4.20)
GFTLNSYGIS	VPYSDGRRTFYKDSVK	GRAAGTFNS	ND / ND / ND	ND	0/9
GETLNSYGIS	VIYSDGRRTSYGDSVK	GRNAGTFDS	0.20 / 0.40 / 0.18	0.26	0/9
GFTYNSYGIS	VIYSDGRRVFYGDSVK	HRAAGTFDS	3.72 / 5.02 / ND	4.37	4/9 (3.75)
GFTLNSYGIS	NIYSIGRRTFYGDSVW	GRAAGTFDS	3.94 / 5.10 / 4.42	4.49	8/9 (4.46)
GFTLNSYGIS	VIYIDGRPTFYGDSVK	GRASGTFDS	ND / ND / ND	ND	0/9
GFHGNSYGIS	VIYSDGRRTFDGDSVK	GRAAGTFDS	ND / ND / ND	ND	0/9
GFTLNSYGIS	VIYSDFRRTFYGDSVK	GRANGTRDS	ND / 3.20 / ND	3.20	1/9 (3.02)
GFTLNSYGCS	VIYSEGRRTFYGLSVK	GRAAGTFDS	2.59 / ND / ND	2.59	2/9 (2.85)
GMTLNSYGIS	VIYSDGRRTFYGDTVK	GRAAGTFDW	ND / ND / ND	ND	0/9
GFTLNSYGIS	VITSDGRRTFYGDSVK	YRAAGFFDS	ND / ND / 3.22	3.22	0/9
GFTLNSYSIS	VIYSDGRRTFYGDSVK	GRKAMTFDS	ND / ND / 3.64	3.64	1/9 (3.22)
GFTLNSYGAL	VIYSDGRRTFYGDSLK	GRAAGTFDS	5.21 / 4.56 / ND	4.89	4/9 (5.06)
GFTDNSYGIS	VIYSDGRRTFYGDSVK	GGAAGTSDS	3.42 / ND / ND	3.42	0/9
GFTLNSYGIS	VIYSDGRRTFHGDSKK	GRAAGTFGS	4.40 / ND / ND	4.40	1/9 (3.98)
GFTLNSYGIS	VIYSNGRMTFYGDSVK	GRAAGTFDS	4.09 / 3.17 / 3.40	3.55	3/9 (3.68)
GFTLNSYGIS	VIYSWGRSQFYGDSVK	GRAAGTFDS	ND / ND / ND	ND	1/9 (4.13)
GFTLNSNGPS	VIYSDGRRTFYGDSVK	GRAAGTLDS	ND / ND / ND	ND	4/9 (3.34)
GFTLNGYGQS	VIYSDGRRTFYGDSVK	GRAAGTFDS	ND / ND / 3.67	3.67	1/9 (5.18)
GSTLNVYGIS	VIYSDGRRTFYGDSVK	GRAAGTFDT	1.81 / ND / 2.74	2.28	0/9
GFTLNSYGIS	VIYSDGRRTFYGNSVK	GRWAGTFDA	1.13 / 1.03 / 1.15	1.10	0/9
GFTLNSYGIH	VIYSDGRRTFYGSSVK	GWAAGTFDS	2.38 / 2.48 / 2.72	2.53	4/9 (4.51)
GFTLNSYGVS	VIYSDMRRTFYGDSVK	CRAAGTFDS	ND / ND / 4.51	4.51	3/9 (4.35)
GFTLNSYGIS	VIGSDFRRTNYGDSVK	GRAAGTFDS	ND / ND / ND	ND	0/9
GFTLNSYGIS	WIYSDGRRTFYGDSVK	ERAAGTSDS	ND / ND / 4.71	4.71	1/9 (4.72)

The last 3 entries again:

CDR-H1	CDR-H2	CDR-H3	log10 Kd (nM) by replicate	log10 Kd (nM), mean	control signals
GFTLNSYGVS	VIYSDMRRTFYGDSVK	CRAAGTFDS	ND / ND / 4.51	4.51	3/9 (4.35)
GFTLNSYGIS	VIGSDFRRTNYGDSVK	GRAAGTFDS	ND / ND / ND	ND	0/9
GFTLNSYGIS	WIYSDGRRTFYGDSVK	ERAAGTSDS	ND / ND / 4.71	4.71	1/9 (4.72)

Empty control strains, which show no peptide, gave a signal in 15% of pairings with library AAYL49; the median was 4.06 and 95% of these signals were weaker than 2.83. No background was subtracted. For each scFv, signals with the empty controls are counted beside the result, with their mean in brackets.

Data: MIT Lincoln Laboratory AlphaSeq set, Engelhart et al. 2022, doi:10.1038/s41597-022-01779-4, as distributed in FLAb.